Assay type in all cases: physicochemical
The nature of series [1]: Solubility in water at 20°C (Table 3).
A further series can be described thus: pH of solution (Table I). Conditions: c=0.005. The text has this: The following Table 1 lists additional compounds of the invention along with their physical properties.
Molecular Brutto N(%) pH UV- Extinction coefficients

Series [2] can be described thus: UV spectrum and extinction coefficients in water (Table I). The settings on record: for mol.Ext.coeff. ε / Extinction coefficients E250/E260 / Extinction coefficients E280/E260 / Extinction coefficients E290/E260: c=0.005, d-l; for Extinction coefficients E250/E260 / Extinction coefficients E280/E260 / Extinction coefficients E290/E260: ratio.
Series [3] can be described thus: UV absorption in % at 300, 280 and 240 nm (Table 2). The text has this: The following Table illustrates the ultraviolet absorption characteristics at wave lengths of 300 nm, 280 nm, and 240 nm for the compounds of the invention, as well as other known compounds which have been used in the past as sun protective agents.

Data on 20 substances can be found in patent US3937809A, “Addition compound of a nucleotide and an amino acid and the use thereof in protection against actinic radiation” (priority 1974, dated 1976).

Turning to “Adenosine-5'-mono phosphoric acid-Na-(p-aminobenzoate) [No. 19]”, in series [1], the “Solubility in Water at 20°C (%)” value worked out at 4.00%. This substance registered a pH in the series “pH of solution (Table I)” of 6.8. Moreover, in series [2], the “UV-spectrum λmax” value was found to be 210 mμ, the “mol.Ext.coeff. ε” value was 210500±4%, the “Extinction coefficients E250/E260” value is reported as 0.73 and the “Extinction coefficients E280/E260” value was 0.50. For the same substance, the “Extinction coefficients E290/E260” value in series [2] is on record as 0.22. Further, in series [3], the “UV Absorption in %, 240 nm” value was 77%; the “UV Absorption in %, 280 nm” value was found to be 90%; the “UV Absorption in %, 300 nm” value is recorded as 65%.

Consider “Adenosine-5'-mono-phosphoric acid-(Na-p-aminobenzoate)2 [No. 2]”, for which the “Solubility in Water at 20°C (%)” value in series [1] worked out at 1.00%. Moreover, the pH in the series “pH of solution (Table I)” worked out at 6.5. Further, in series [2], the “UV-spectrum λmax” value is 265 mμ, the “mol.Ext.coeff. ε” value is 253000±4%, the “Extinction coefficients E250/E260” value came to 0.89 and the “Extinction coefficients E280/E260” value was 0.70. In addition, the “Extinction coefficients E290/E260” value in series [2] is reported as 0.4. Moreover, in series [3], the “UV Absorption in %, 240 nm” value is given as 73%; the “UV Absorption in %, 280 nm” value was 100%; the “UV Absorption in %, 300 nm” value was found to be 99%.

Turning to “Adenosine-5'-mono-phosphoric acid-(Na-sulfanilate)2 [No. 9]”, the pH in the series “pH of solution (Table I)” came to 6.50. In addition, in series [2], the “UV-spectrum λmax” value came out at 208 mμ, the “mol.Ext.coeff. ε” value was found to be 265500±4%, the “Extinction coefficients E250/E260” value is 1.06 and the “Extinction coefficients E280/E260” value turned out to be 0.21. Further, the “Extinction coefficients E290/E260” value in series [2] turned out to be 0.11.

In the case of “Adenosine-5'-mono-phosphoric acid-(p-aminobenzoic acid)2 [No. 13]”, the pH in “pH of solution (Table I)” was 6.2. Moreover, in series [2], the “UV-spectrum λmax” value amounted to 265 mμ, the “mol.Ext.coeff. ε” value stood at 236000±4, the “Extinction coefficients E250/E260” value is 0.82 and the “Extinction coefficients E280/E260” value was found to be 0.89. For the same substance, the “Extinction coefficients E290/E260” value in series [2] is on record as 0.57.

In “pH of solution (Table I)”, “Adenosune-5'-mono phosphoric acid-(o-Na-aminophenol-sulfonate)2 [No. 7]” displayed a pH of 6.35. For the same substance, in series [2], the “UV-spectrum λmax” value came out at 274 mμ, the “mol.Ext.coeff. ε” value amounted to 332000±4%, the “Extinction coefficients E250/E260” value is 0.82 and the “Extinction coefficients E280/E260” value is 0.45. Further, the “Extinction coefficients E290/E260” value in series [2] is 0.46.

Turning to “Cytidine-5'-Na-mono-phosphoric acid-(Na-p-amino-benzoic acid) [No. 14]”, the “Solubility in Water at 20°C (%)” value in series [1] was 1.00%. In the series “pH of solution (Table I)”, the pH came out at 7.35. Besides, in series [2], the “UV-spectrum λmax” value came out at 206 mμ, the “mol.Ext.coeff. ε” value turned out to be 161000±4%, the “Extinction coefficients E250/E260” value is recorded as 0.66 and the “Extinction coefficients E280/E260” value was found to be 1.00. For the same substance, the “Extinction coefficients E290/E260” value in series [2] worked out at 0.51. Also, in series [3], the “UV Absorption in %, 240 nm” value stood at 78%; the “UV Absorption in %, 280 nm” value turned out to be 97%; the “UV Absorption in %, 300 nm” value turned out to be 73%.

For the substance “Cytidine-5'-mono-phosphoric acid-(Na-o-aminophenol sulfonate)2 [No. 8]”, in the series “pH of solution (Table I)”, the pH stood at 6.60. In series [2], the “UV-spectrum λmax” value stood at 215 mμ, the “mol.Ext.coeff. ε” value stood at 298000±4%, the “Extinction coefficients E250/E260” value is on record as 1.41 and the “Extinction coefficients E280/E260” value was 1.07. The “Extinction coefficients E290/E260” value in series [2] came to 0.69.

Turning to “Cytidine-5'-mono-phosphoric acid-(Na-tryptophane)2 [No. 12]”, the pH in the series “pH of solution (Table I)” is reported as 7.0. In addition, in series [2], the “UV-spectrum λmax” value came out at 223 mμ, the “mol.Ext.coeff. ε” value was found to be 295500±4%, the “Extinction coefficients E250/E260” value came to 0.71 and the “Extinction coefficients E280/E260” value was 1.11. For the same substance, the “Extinction coefficients E290/E260” value in series [2] is reported as 0.42.

In “pH of solution (Table I)”, “Cytidine-5'-mono-phosphoric acid-(Na-tyrosine)2 [No. 10]” came in with a pH of 6.65. Moreover, in series [2], the “UV-spectrum λmax” value was found to be 224 mμ, the “mol.Ext.coeff. ε” value came out at 189000±4%, the “Extinction coefficients E250/E260” value amounted to 0.75 and the “Extinction coefficients E280/E260” value turned out to be 1.15. In addition, the “Extinction coefficients E290/E260” value in series [2] is listed as 0.40.

As for “Cytidine-5'-mono-phosphoric acid-(p-aminobenzoate)2 [No. 20]”, the “Solubility in Water at 20°C (%)” value in series [1] is above 10.00%. In the series “pH of solution (Table I)”, this substance returned a pH of 5.9. In series [2], the “UV-spectrum λmax” value is recorded as 270 mμ, the “mol.Ext.coeff. ε” value is on record as 255500±4% and the “Extinction coefficients E290/E260” value was determined as 0.35. In series [3], the “UV Absorption in %, 240 nm” value is on record as 78%; the “UV Absorption in %, 280 nm” value turned out to be 100%; the “UV Absorption in %, 300 nm” value was 98%.

In “pH of solution (Table I)”, “Guanosine-5'-mono-phosphoric acid (1-amino-2-hydroxy-naphthlene sulfate)2 [No. 17]” came in with a pH of 6.85. Besides, in series [2], the “UV-spectrum λmax” value was 215 mμ, the “mol.Ext.coeff. ε” value worked out at 346000±4%, the “Extinction coefficients E250/E260” value is listed as 1.37 and the “Extinction coefficients E280/E260” value was determined as 0.53. In addition, in series [2], the “Extinction coefficients E290/E260” value amounted to 0.41.

In “pH of solution (Table I)”, “Guanosine-5'-mono-phosphoric acid-(5-aminonaphthalene-1-sulfate)2 [No. 16]” had a pH of 6.85. In series [2], the “UV-spectrum λmax” value was determined as 210 mμ, the “mol.Ext.coeff. ε” value turned out to be 333000±4%, the “Extinction coefficients E250/E260” value was found to be 1.86 and the “Extinction coefficients E280/E260” value was 0.47. For the same substance, the “Extinction coefficients E290/E260” value in series [2] is on record as 0.31.

“Guanosine-5'-mono-phosphoric acid-(5-aminosulfosal-icylate)2 [No. 15]”: the pH in the series “pH of solution (Table I)” is 7.05. Moreover, in series [2], the “UV-spectrum λmax” value is listed as 215 mμ, the “mol.Ext.coeff. ε” value worked out at 358000±4%, the “Extinction coefficients E250/E260” value is 1.3 and the “Extinction coefficients E280/E260” value worked out at 0.44. For the same substance, the “Extinction coefficients E290/E260” value in series [2] was 0.14.

As to “Uridine-5'-mono-phosphoric acid-(Na-histidine)2 [No. 4]”, the pH in the series “pH of solution (Table I)” stood at 7.0. Further, in series [2], the “UV-spectrum λmax” value is given as 210 mμ, the “mol.Ext.coeff. ε” value was determined as 156000±4%, the “Extinction coefficients E250/E260” value is on record as 0.75 and the “Extinction coefficients E280/E260” value turned out to be 0.42. Further, the “Extinction coefficients E290/E260” value in series [2] turned out to be 0.09.

For the substance “Uridine-5'-mono-phosphoric acid-(Na-tyrosine)2 [No. 11]”, in the series “pH of solution (Table I)”, the pH is 7.05. Further, in series [2], the “UV-spectrum λmax” value was 224 mμ, the “mol.Ext.coeff. ε” value was found to be 164500±4%, the “Extinction coefficients E250/E260” value stood at 0.64 and the “Extinction coefficients E280/E260” value turned out to be 0.62. In addition, in series [2], the “Extinction coefficients E290/E260” value worked out at 0.

As for “Uridine-5'-mono-phosphoric acid-(p-amino benzoate)2 [No. 18]”, the “Solubility in Water at 20°C (%)” value in series [1] is recorded as 5.00%. The substance further gave a pH in the series “pH of solution (Table I)” of 6.65. Moreover, in series [2], the “UV-spectrum λmax” value was determined as 260 mμ, the “mol.Ext.coeff. ε” value was 231000±4%, the “Extinction coefficients E250/E260” value is reported as 0.82 and the “Extinction coefficients E280/E260” value was determined as 0.69. The “Extinction coefficients E290/E260” value in series [2] was found to be 0.33. In addition, in series [3], the “UV Absorption in %, 240 nm” value was 79%; the “UV Absorption in %, 280 nm” value was 99%; the “UV Absorption in %, 300 nm” value turned out to be 76%.

In the series “pH of solution (Table I)”, “Uridine-5'-mono-phosphoric acid-(tryptophane)2 [No. 1]” came in with a pH of 6.5. Further, in series [2], the “UV-spectrum λmax” value came to 233 mμ, the “mol.Ext.coeff. ε” value was 278000±4%, the “Extinction coefficients E250/E260” value came to 0.77 and the “Extinction coefficients E280/E260” value worked out at 0.69. In addition, the “Extinction coefficients E290/E260” value in series [2] is listed as 1.51.

As to “Uridine-5-Na-mono-phosphoric acid-(Na-p-aminobenzoate) [No. 3]”, the “Solubility in Water at 20°C (%)” value in series [1] was 9.20%. Further, in “pH of solution (Table I)”, the pH is on record as 6.95. For the same substance, in series [2], the “UV-spectrum λmax” value is listed as 206 mμ, the “mol.Ext.coeff. ε” value was found to be 173500±4%, the “Extinction coefficients E250/E260” value was found to be 0.79 and the “Extinction coefficients E280/E260” value came to 0.71. Further, in series [2], the “Extinction coefficients E290/E260” value is given as 0.32. In addition, in series [3], the “UV Absorption in %, 240 nm” value is given as 77%; the “UV Absorption in %, 280 nm” value is listed as 95%; the “UV Absorption in %, 300 nm” value came out at 52%.

In the case of “Uridine-5-mono-phosphoric acid-(Na-tryptophane)2 [No. 6]”, in “pH of solution (Table I)”, the pH is 7.25. Also, in series [2], the “UV-spectrum λmax” value was determined as 222 mμ, the “mol.Ext.coeff. ε” value came out at 329200±4%, the “Extinction coefficients E250/E260” value was 0.71 and the “Extinction coefficients E280/E260” value was 0.76. The “Extinction coefficients E290/E260” value in series [2] turned out to be 0.30.

As to o-Aminophenol sulfate, in series [3], the “UV Absorption in %, 240 nm” value worked out at 98%; the “UV Absorption in %, 280 nm” value is listed as 70%; the “UV Absorption in %, 300 nm” value is reported as 72%.
